Values quoted from earlier work as cited in patent US4649200A, “Substituted pyrroles with opioid receptor activity” (Regents of the University of Minnesota, priority 1986, dated 1987).

System: mu receptors
Conditions: cited from earlier work

Structure (SMILES): C=CCN1CC[C@]23c4c5ccc(O)c4O[C@H]2C(=O)CC[C@@]3(O)[C@H]1C5 [naloxone]
- potency at mu receptors compared with kappa: much greater potency at mu receptors
